Assay results from US10828288B2, “Hydrazone derivatives for the treatment of cancer” (RUTGERS, THE STATE UNIVERSITY OF NEW JERSEY, priority 2015, dated 2020).

System: TOV112D (ovarian cancer, p53-R175H) cells
Assay: Intracellular [Zn2+]free imaging with FluoZin-3-AM, TOV112D
Format: cell-based, human
Conditions: EBSS/H (−)Ca/Mg

## C/C(=N\NC(=S)N1CCC1)c1ccccn1 [ZMC1]
ZMC1 alone without ZnCl2
  increase of intracellular [Zn2+]free, compound alone: neither cell type showed an increase
ZMC1 and ZnCl2, two ZnCl2 concentrations
  increase of intracellular [Zn2+]free, with ZnCl2: time dependent increase
